The values below come from patent US11491168B2, “Combination of Bcl-2/Bcl-xL inhibitors and chemotherapeutic agent and use thereof” (ASCENTAGE PHARMA (SUZHOU) CO., LTD., priority 2019, dated 2022).

For this test, the system named is subcutaneous NCI-H1975-L858R-T790M-C797S NSCLC xenograft. Nature of the test: NCI-H1975-L858R-T790M-C797S NSCLC xenograft model. The settings on record: for RTV @ D22: Compound 15 100 mg/kg i.v. twice a week, Cisplatin 5 mg/kg i.v. once a week, TXT 8 mg/kg i.v. once a week; for mRECIST @ D29 / mRECIST_best: PR, SD, PD; for T/C @ D22: Table 8, printed as fraction; for RTV @ D29: doses as b332; for T/C @ D29: given as fraction; for T/C value: at day 22, text.

Several values for one entry are separate records, joined by “and”; a condition that tells them apart may be missing. Equal entries are not always repeated.

Turning to `Cc1c(S(C)(=O)=O)c(-c2cc(F)cc(N3CCN(c4ccc(NS(=O)(=O)c5ccc(N[C@H](CCN6CCC(C(=O)OCCP(=O)(O)O)CC6)CSc6ccccc6)c(S(=O)(=O)C(F)(F)F)c5)cc4)CC3)c2)c(-c2ccc(Cl)cc2)n1C(C)C` [Compound 15, (R)-2-(1-(3-(4-(N-(4-(4-(3-(2-(4-chlorophenyl)-1-isopropyl-5-methyl-4-(methylsulfonyl)-1H-pyrrol-3-yl)-5-fluorophenyl)piperazin-1-yl)phenyl)sulfamoyl)-2-(trifluoromethylsulfonyl)phenylamino)-4-(phenylthio)butyl)piperidine-4-carbonyloxy)ethylphosphonic acid], the “RTV @ D22” value is listed as 3.4 ± 0.6, the “mRECIST @ D29” value is recorded as 5/5 PD, the mRECIST_best was 5/5 PD and the “T/C @ D22” value is reported as 0.590. Also, the “RTV @ D29” value is reported as 5.7 ± 1.7 and the “T/C @ D29” value was determined as 0.630.
Consider `N.N.[Cl][Pt][Cl]` [cisplatin], for which the “RTV @ D22” value was found to be 3.7 ± 0.9; the “mRECIST @ D29” value is recorded as 5/5 PD; the mRECIST_best was 1/5 SD, 4/5 PD; the T/C value was 66.1%. Also, the “RTV @ D29” value is listed as 4.6 ± 1.5.
Consider `CC(=O)O[C@@]12CO[C@@H]1C[C@H](O)[C@@]1(C)C(=O)[C@H](O)C3=C(C)[C@@H](OC(=O)[C@H](O)[C@@H](NC(=O)OC(C)(C)C)c4ccccc4)C[C@@](O)([C@@H](OC(=O)c4ccccc4)[C@H]21)C3(C)C` [docetaxel], for which the “RTV @ D22” value stood at 1.2 ± 0.3, the “T/C @ D22” value was found to be 0.380, the T/C value was found to be 21.4% and the “RTV @ D29” value is on record as 1.1 ± 0.2. Also, the “T/C @ D29” value is on record as 0.120. Further, where the note is “listed as TXT”, the “mRECIST @ D29” value was 3/5 SD, and 2/5 PD; the mRECIST_best is 1/5 PR, 2/5 SD, and 2/5 PD.
